Laboratory results reported in publication PMC12678819, “Targeting bacterial kinases as a strategy to counteract antibiotic resistance” (2025).
Several values for one entry are separate records, joined by “and”; a condition that tells them apart may be missing. Equal entries are not always repeated.

Amino acid sequences for entries named in this document (tags omitted). Residues count along the entry.
UniProt Q13554, 14-272 limits assumed: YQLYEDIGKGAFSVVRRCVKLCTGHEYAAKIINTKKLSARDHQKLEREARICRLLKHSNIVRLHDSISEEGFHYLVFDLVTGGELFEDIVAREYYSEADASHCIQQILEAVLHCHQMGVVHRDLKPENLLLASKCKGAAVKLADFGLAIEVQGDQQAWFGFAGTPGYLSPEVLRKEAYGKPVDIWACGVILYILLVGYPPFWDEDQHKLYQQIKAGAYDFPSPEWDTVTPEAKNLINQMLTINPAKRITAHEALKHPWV
UniProt P15735, 6-293 limits assumed: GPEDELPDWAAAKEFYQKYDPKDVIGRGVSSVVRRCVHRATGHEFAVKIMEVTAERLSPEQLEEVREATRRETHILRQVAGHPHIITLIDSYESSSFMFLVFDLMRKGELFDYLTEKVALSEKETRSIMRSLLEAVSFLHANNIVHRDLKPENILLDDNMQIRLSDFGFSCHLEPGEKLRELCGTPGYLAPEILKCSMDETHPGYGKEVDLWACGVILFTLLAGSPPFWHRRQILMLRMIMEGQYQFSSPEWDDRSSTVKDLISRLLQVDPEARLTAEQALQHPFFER
UniProt Q12866, 587-858 limits assumed: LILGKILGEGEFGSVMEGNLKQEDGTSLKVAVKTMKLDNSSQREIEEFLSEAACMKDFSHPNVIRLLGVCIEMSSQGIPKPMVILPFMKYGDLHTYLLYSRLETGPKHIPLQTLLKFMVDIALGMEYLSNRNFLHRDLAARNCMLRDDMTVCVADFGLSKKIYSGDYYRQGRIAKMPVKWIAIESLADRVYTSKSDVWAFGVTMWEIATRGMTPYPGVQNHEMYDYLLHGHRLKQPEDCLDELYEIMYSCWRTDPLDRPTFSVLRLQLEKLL
UniProt P21802, 458-768 limits assumed: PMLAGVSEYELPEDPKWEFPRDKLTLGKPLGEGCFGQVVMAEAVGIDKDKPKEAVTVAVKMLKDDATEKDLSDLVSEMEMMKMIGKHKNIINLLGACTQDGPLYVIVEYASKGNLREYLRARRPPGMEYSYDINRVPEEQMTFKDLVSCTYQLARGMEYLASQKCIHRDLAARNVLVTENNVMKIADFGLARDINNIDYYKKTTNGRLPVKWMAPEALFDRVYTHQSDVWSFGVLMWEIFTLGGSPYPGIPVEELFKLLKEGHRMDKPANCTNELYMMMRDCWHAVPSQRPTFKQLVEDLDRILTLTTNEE
UniProt Q6PHR2, 1-279 limits assumed: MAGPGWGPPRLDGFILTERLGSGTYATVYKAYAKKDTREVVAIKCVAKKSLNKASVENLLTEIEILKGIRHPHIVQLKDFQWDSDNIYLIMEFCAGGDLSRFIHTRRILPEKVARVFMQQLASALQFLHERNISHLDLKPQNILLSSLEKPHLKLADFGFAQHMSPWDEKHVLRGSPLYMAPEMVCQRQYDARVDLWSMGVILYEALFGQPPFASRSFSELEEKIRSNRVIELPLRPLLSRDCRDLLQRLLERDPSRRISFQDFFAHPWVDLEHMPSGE
UniProt Q9H2X6, 199-527 limits assumed: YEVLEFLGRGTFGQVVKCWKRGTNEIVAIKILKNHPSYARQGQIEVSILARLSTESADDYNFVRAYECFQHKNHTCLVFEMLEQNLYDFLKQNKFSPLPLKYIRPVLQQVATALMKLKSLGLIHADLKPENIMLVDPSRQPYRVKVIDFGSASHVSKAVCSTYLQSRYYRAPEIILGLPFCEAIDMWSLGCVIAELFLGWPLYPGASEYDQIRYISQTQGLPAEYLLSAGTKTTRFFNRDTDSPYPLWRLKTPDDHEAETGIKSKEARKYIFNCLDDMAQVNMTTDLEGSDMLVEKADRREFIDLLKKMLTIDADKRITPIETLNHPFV
UniProt O75582, 426-687 limits assumed: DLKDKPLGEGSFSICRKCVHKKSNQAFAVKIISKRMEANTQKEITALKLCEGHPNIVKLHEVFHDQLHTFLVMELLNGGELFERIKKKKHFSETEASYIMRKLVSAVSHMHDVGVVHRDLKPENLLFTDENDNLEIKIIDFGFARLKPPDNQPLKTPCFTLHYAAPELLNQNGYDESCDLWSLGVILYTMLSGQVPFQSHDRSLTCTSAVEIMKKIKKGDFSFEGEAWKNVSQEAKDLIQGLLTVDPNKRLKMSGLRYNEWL
UniProt P45985, 102-367 limits assumed: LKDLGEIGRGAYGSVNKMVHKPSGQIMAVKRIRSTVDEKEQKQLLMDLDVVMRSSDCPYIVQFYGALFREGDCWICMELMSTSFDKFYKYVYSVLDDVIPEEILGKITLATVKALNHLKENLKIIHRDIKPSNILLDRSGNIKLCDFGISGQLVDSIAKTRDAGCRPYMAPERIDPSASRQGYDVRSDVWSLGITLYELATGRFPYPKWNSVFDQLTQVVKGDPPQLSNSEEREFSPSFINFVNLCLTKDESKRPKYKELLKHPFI
UniProt P49674, 1-294 limits assumed: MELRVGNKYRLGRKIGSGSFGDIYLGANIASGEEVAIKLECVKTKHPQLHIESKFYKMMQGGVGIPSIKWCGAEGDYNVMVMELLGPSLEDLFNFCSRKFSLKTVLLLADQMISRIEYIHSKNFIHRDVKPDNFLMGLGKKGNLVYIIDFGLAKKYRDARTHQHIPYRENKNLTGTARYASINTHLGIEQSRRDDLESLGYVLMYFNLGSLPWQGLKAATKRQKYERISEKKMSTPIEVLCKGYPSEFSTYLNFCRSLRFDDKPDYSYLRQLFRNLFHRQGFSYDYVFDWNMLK
UniProt P54762, 619-882 limits assumed: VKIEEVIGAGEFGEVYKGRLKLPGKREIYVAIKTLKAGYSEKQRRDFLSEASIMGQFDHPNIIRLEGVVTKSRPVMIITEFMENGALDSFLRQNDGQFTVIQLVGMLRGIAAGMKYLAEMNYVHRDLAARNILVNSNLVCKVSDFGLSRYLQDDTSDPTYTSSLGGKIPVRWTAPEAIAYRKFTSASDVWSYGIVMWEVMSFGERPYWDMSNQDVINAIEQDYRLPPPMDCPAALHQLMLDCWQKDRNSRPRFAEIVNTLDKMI
UniProt P53355, 13-275 limits assumed: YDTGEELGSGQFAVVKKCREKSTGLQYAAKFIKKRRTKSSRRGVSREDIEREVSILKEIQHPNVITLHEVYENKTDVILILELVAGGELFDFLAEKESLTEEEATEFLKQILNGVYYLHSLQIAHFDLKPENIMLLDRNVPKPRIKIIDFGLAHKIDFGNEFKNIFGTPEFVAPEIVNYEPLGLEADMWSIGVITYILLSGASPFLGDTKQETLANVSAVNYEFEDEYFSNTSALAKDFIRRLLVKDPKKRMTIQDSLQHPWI
UniProt P29317, 613-875 limits assumed: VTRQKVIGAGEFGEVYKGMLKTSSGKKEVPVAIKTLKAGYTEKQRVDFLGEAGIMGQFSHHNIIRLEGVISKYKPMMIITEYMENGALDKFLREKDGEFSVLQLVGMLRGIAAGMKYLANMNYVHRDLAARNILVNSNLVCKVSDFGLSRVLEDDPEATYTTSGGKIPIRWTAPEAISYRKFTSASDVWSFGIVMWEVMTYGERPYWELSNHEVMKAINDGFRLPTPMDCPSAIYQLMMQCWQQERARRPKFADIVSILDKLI
UniProt Q16539, whole entry, looked up: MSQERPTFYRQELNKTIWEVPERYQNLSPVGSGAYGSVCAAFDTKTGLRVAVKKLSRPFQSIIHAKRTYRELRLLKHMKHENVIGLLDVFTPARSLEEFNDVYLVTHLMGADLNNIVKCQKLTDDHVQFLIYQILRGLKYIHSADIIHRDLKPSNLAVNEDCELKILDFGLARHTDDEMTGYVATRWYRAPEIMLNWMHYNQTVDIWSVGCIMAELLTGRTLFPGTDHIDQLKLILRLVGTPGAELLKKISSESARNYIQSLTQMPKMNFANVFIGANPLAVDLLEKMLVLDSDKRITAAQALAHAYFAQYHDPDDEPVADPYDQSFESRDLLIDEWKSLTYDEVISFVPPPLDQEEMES
UniProt P54753, 633-896 limits assumed: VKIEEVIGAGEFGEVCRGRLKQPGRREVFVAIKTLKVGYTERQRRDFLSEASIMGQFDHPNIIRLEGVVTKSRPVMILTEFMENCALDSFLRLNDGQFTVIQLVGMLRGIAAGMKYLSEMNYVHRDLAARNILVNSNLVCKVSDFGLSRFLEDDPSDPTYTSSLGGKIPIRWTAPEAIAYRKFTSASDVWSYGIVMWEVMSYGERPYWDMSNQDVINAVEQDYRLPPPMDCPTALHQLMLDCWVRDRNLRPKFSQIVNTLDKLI
UniProt Q00536, 163-478 limits assumed: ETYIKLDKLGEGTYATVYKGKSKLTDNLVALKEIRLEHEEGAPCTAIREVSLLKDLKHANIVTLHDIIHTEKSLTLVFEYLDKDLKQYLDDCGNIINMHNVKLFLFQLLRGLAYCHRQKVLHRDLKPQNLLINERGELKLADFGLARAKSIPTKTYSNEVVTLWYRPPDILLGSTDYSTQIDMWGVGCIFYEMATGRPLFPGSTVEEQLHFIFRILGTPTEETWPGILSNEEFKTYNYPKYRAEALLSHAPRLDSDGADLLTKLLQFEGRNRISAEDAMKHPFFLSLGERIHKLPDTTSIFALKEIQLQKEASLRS
UniProt O43293, 13-275 limits assumed: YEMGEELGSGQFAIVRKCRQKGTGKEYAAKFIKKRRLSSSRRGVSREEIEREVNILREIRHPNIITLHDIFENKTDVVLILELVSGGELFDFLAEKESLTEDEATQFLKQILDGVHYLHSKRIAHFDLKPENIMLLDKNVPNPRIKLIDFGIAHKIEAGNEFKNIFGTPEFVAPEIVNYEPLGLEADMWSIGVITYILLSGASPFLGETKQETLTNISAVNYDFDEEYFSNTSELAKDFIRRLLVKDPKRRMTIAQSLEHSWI
UniProt Q13188, 16-313 limits assumed: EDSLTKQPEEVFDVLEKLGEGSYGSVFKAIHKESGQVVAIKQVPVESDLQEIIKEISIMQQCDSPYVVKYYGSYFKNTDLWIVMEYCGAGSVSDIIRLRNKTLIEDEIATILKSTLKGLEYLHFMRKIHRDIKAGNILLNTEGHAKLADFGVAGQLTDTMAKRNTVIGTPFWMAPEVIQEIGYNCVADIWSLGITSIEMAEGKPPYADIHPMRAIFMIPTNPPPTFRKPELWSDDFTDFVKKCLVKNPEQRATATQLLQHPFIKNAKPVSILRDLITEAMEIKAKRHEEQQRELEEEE
UniProt Q13043, 1-311 limits assumed: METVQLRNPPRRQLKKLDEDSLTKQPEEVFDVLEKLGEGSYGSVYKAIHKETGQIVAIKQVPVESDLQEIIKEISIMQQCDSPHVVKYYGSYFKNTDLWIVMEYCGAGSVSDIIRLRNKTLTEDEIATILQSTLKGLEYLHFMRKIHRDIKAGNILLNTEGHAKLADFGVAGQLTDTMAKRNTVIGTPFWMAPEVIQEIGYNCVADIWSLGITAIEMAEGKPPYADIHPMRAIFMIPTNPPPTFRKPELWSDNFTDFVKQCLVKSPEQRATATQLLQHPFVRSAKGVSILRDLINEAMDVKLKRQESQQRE
UniProt Q9UKI8, 456-734 limits assumed: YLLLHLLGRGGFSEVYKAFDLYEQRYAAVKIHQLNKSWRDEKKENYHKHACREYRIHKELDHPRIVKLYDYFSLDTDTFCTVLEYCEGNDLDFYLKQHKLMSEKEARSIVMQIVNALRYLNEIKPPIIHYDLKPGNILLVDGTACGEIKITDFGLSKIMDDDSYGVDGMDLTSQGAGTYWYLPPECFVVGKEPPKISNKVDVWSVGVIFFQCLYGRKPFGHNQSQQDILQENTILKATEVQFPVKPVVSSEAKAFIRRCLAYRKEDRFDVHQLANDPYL
UniProt Q96GD4, 77-327 limits assumed: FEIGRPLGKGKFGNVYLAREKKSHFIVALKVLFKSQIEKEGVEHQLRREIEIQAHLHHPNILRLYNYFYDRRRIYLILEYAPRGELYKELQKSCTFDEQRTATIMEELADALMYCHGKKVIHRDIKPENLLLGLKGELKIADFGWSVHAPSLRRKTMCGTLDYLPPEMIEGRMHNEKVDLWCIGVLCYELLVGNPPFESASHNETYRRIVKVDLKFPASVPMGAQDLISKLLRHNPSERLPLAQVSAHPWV
UniProt Q13153, 249-545 limits assumed: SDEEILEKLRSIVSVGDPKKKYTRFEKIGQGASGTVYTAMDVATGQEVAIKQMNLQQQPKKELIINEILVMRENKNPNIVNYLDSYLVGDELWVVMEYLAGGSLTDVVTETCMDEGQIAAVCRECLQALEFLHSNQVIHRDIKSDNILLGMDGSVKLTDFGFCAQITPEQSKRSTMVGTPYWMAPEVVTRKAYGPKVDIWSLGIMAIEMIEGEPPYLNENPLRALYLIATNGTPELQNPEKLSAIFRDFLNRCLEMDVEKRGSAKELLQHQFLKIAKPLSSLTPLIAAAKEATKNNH
UniProt Q92630, 222-535 limits assumed: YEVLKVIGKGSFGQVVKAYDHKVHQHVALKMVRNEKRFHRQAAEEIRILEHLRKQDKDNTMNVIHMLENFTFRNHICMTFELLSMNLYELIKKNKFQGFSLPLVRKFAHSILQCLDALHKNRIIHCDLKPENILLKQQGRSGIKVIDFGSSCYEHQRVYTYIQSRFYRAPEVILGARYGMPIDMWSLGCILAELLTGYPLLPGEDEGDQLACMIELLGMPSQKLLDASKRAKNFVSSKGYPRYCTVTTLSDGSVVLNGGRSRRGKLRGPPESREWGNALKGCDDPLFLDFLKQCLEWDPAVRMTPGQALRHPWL

How the values were obtained:
CAMK2B = CAMK2B (Homo sapiens, UniProt Q13554); assay: DSF kinase panel; conditions: 10 μM
PHKg2 = PHKg2 (Homo sapiens, UniProt P15735); assay: DSF kinase panel; conditions: 10 μM
CHK2 = CHK2 (Homo sapiens, UniProt O96017); assay: DSF kinase panel; conditions: 10 μM
DMPK1 = DMPK1 (Homo sapiens, UniProt Q09013); assay: DSF kinase panel; conditions: 10 μM
MER = MER (Homo sapiens, UniProt Q12866); assay: DSF kinase panel; conditions: 10 μM
ABL1 = ABL1 (Homo sapiens, UniProt P00519); assay: DSF kinase panel; conditions: 10 μM
Erk2 = Erk2 (Homo sapiens, UniProt P28482); assay: DSF kinase panel; conditions: 10 μM
FGFR2 = FGFR2 (Homo sapiens, UniProt P21802); assay: DSF kinase panel; conditions: 10 μM
ULK3 = ULK3 (Homo sapiens, UniProt Q6PHR2); assay: DSF kinase panel; conditions: 10 μM
HIPK2 = HIPK2 (Homo sapiens, UniProt Q9H2X6); assay: DSF kinase panel; conditions: 10 μM
MSK1_b = MSK1_b (Homo sapiens, UniProt O75582); assay: DSF kinase panel; conditions: 10 μM
MEK4 = MEK4 (Homo sapiens, UniProt P45985); assay: DSF kinase panel; conditions: 10 μM
SRPK1 = SRPK1 (Homo sapiens, UniProt Q96SB4); assay: DSF kinase panel; conditions: 10 μM
CSNK1E = CSNK1E (Homo sapiens, UniProt P49674); assay: DSF kinase panel; conditions: 10 μM
MAP3K5 = MAP3K5 (Homo sapiens, UniProt Q99683); assay: DSF kinase panel; conditions: 10 μM
EPHB1 = EPHB1 (Homo sapiens, UniProt P54762); assay: DSF kinase panel; conditions: 10 μM
MAP2K1 = MAP2K1 (Homo sapiens, UniProt Q02750); assay: DSF kinase panel; conditions: 10 μM
DAPK1 = DAPK1 (Homo sapiens, UniProt P53355); assay: DSF kinase panel; conditions: 10 μM
BMX = BMX (Homo sapiens, UniProt P51813); assay: DSF kinase panel; conditions: 10 μM
EphA2 = EphA2 (Homo sapiens, UniProt P29317); assay: DSF kinase panel; conditions: 10 μM
FGFR1 = FGFR1 (Homo sapiens, UniProt P11362); assay: DSF kinase panel; conditions: 10 μM
JNK2 = JNK2 (Homo sapiens, UniProt P45984); assay: DSF kinase panel; conditions: 10 μM
p38a = p38a (Homo sapiens, UniProt Q16539); assay: DSF kinase panel; conditions: 10 μM
EPHB3 = EPHB3 (Homo sapiens, UniProt P54753); assay: DSF kinase panel; conditions: 10 μM
p38d = p38d (Homo sapiens, UniProt O15264); assay: DSF kinase panel; conditions: 10 μM
ATK3 = ATK3 (Homo sapiens, UniProt Q9Y243); assay: DSF kinase panel; conditions: 10 μM
CDK2 = CDK2 (Homo sapiens, UniProt P24941); assay: DSF kinase panel; conditions: 10 μM
PIM3 = PIM3 (Homo sapiens, UniProt Q86V86); assay: DSF kinase panel; conditions: 10 μM
PCTAIRE1 = PCTAIRE1 (Homo sapiens, UniProt Q00536); assay: DSF kinase panel; conditions: 10 μM
DAPK3 = DAPK3 (Homo sapiens, UniProt O43293); assay: DSF kinase panel; conditions: 10 μM
MST2 = MST2 (Homo sapiens, UniProt Q13188); assay: DSF kinase panel; conditions: 10 μM
MST1 = MST1 (Homo sapiens, UniProt Q13043); assay: DSF kinase panel; conditions: 10 μM
AurA = AurA (Homo sapiens, UniProt O14965); assay: DSF kinase panel; conditions: 10 μM
TLK1 = TLK1 (Homo sapiens, UniProt Q9UKI8); assay: DSF kinase panel; conditions: 10 μM
AURKB = AURKB (Homo sapiens, UniProt Q96GD4); assay: DSF kinase panel; conditions: 10 μM
PAK1 = PAK1 (Homo sapiens, UniProt Q13153); assay: DSF kinase panel; conditions: 10 μM
TTK = TTK (Homo sapiens, UniProt P33981); assay: DSF kinase panel; conditions: 10 μM
DYRK2 = DYRK2 (Homo sapiens, UniProt Q92630); assay: DSF kinase panel; conditions: 10 μM
[1] = Metabolic stability assay, mouse microsomes
[2] = Metabolic stability assay, human microsomes
[3] = Plasma stability assay, mouse; conditions: 1 μg∙mL-1
[4] = Plasma protein binding, human; conditions: for PPB human (%): mean; for PPB human, single replicate: raw data of Table 3
[5] = Plasma protein binding, mouse; conditions: for PPB mouse, single replicate: maus, raw data of Table 3; for PPB mouse (%): mean

## Clc1cnc2[nH]ccc2c1-c1cn(-c2ccccc2)nn1
CAMK2B
  ΔTm CAMK2B: -0.1 °C
PHKg2
  ΔTm PHKg2: 0.7 °C
CHK2
  ΔTm CHK2: 1.9 °C
DMPK1
  ΔTm DMPK1: 0.9 °C
MER
  ΔTm MER: -0.1 °C
ABL1
  ΔTm ABL1: 1.2 °C
Erk2
  ΔTm Erk2: 0.2 °C
FGFR2
  ΔTm FGFR2: -0.3 °C
ULK3
  ΔTm ULK3: 8.9 °C
HIPK2
  ΔTm HIPK2: 1.2 °C
MSK1_b
  ΔTm MSK1_b: 4.7 °C
MEK4
  ΔTm MEK4: 3.2 °C
SRPK1
  ΔTm SRPK1: -0.3 °C
CSNK1E
  ΔTm CSNK1E: 1.1 °C
MAP3K5
  ΔTm MAP3K5: 4.9 °C
EPHB1
  ΔTm EPHB1: 0.0 °C
MAP2K1
  ΔTm MAP2K1: 0.1 °C
DAPK1
  ΔTm DAPK1: 3.0 °C
BMX
  ΔTm BMX: -0.3 °C
EphA2
  ΔTm EphA2: -0.6 °C
FGFR1
  ΔTm FGFR1: 0.7 °C
JNK2
  ΔTm JNK2: -0.1 °C
p38a
  ΔTm p38a: -0.7 °C
EPHB3
  ΔTm EPHB3: -2.3 °C
p38d
  ΔTm p38d: 0.2 °C
ATK3
  ΔTm ATK3: 0.2 °C
CDK2
  ΔTm CDK2: 0.0 °C
PIM3
  ΔTm PIM3: 1.4 °C
PCTAIRE1
  ΔTm PCTAIRE1: 0.0 °C
DAPK3
  ΔTm DAPK3: 4.7 °C
MST2
  ΔTm MST2: 0.7 °C
MST1
  ΔTm MST1: 1.0 °C
AurA
  ΔTm AurA: 5.5 °C
TLK1
  ΔTm TLK1: -1.0 °C
AURKB
  ΔTm AURKB: 4.9 °C
PAK1
  ΔTm PAK1: -0.4 °C
TTK
  ΔTm TTK: 1.4 °C
DYRK2
  ΔTm DYRK2: 3.5 °C
[1]
  t1/2 mouse microsomes: 0.428 h
[2]
  t1/2 human microsomes: 0.322 h
[3]
  t1/2 mouse plasma: 2.122 h
[4]
  PPB human (%): 98.8%
  PPB human, single replicate: 98.5% and 99.1% and 98.8%
[4]; listed as 14 f
  PPB human (%): 98.8 ± 0.3%
[5]
  PPB mouse, single replicate: 98.1% and 98.6% and 97.3%
  PPB mouse (%): 98.0 ± 0.7%

## C[C@H](CO)Cn1cc(-c2c(Cl)cnc3[nH]ccc23)nn1
CAMK2B
  ΔTm CAMK2B: 0.1 °C
PHKg2
  ΔTm PHKg2: 1.1 °C
CHK2
  ΔTm CHK2: 2.4 °C
DMPK1
  ΔTm DMPK1: 2.0 °C
MER
  ΔTm MER: 0.4 °C
ABL1
  ΔTm ABL1: 2.1 °C
Erk2
  ΔTm Erk2: 0.9 °C
FGFR2
  ΔTm FGFR2: -0.1 °C
ULK3
  ΔTm ULK3: 7.1 °C
HIPK2
  ΔTm HIPK2: 1.6 °C
MSK1_b
  ΔTm MSK1_b: 6.1 °C
MEK4
  ΔTm MEK4: 4.7 °C
SRPK1
  ΔTm SRPK1: 0.4 °C
CSNK1E
  ΔTm CSNK1E: 2.9 °C
MAP3K5
  ΔTm MAP3K5: 5.2 °C
EPHB1
  ΔTm EPHB1: 0.5 °C
MAP2K1
  ΔTm MAP2K1: 1.2 °C
DAPK1
  ΔTm DAPK1: 3.1 °C
BMX
  ΔTm BMX: 0.5 °C
EphA2
  ΔTm EphA2: -0.2 °C
FGFR1
  ΔTm FGFR1: 1.2 °C
JNK2
  ΔTm JNK2: 0.2 °C
p38a
  ΔTm p38a: -0.7 °C
EPHB3
  ΔTm EPHB3: -1.1 °C
p38d
  ΔTm p38d: 1.1 °C
ATK3
  ΔTm ATK3: 0.2 °C
CDK2
  ΔTm CDK2: 1.7 °C
PIM3
  ΔTm PIM3: 0.9 °C
PCTAIRE1
  ΔTm PCTAIRE1: 0.6 °C
DAPK3
  ΔTm DAPK3: 5.6 °C
MST2
  ΔTm MST2: 2.5 °C
MST1
  ΔTm MST1: 2.0 °C
AurA
  ΔTm AurA: 7.6 °C
TLK1
  ΔTm TLK1: -1.1 °C
AURKB
  ΔTm AURKB: 6.0 °C
PAK1
  ΔTm PAK1: -0.4 °C
TTK
  ΔTm TTK: 2.6 °C
DYRK2
  ΔTm DYRK2: 3.2 °C
[1]
  t1/2 mouse microsomes: >1 h
[2]
  t1/2 human microsomes: >1 h
[3]
  t1/2 mouse plasma: > 4 h
[4]
  PPB human (%): 26.4 ± 11.1%
  PPB human, single replicate: 31.7% and 13.6% and 33.9%
[5]
  PPB mouse, single replicate: 4.7% and 20.9% and 7.9%
  PPB mouse (%): 11.2 ± 8.6%
